System: BJ-NSC
Experiment: MTT cytotoxicity assay, 72 h drug exposure, BJ-NSCs (healthy control)
Format: cell-based, human
Protocol: For NSCs differentiation, iPSCs colonies were seeded in StemMACS iPS-Brew XF medium on diluted Geltrex coated 6-wells plates at a density of 3 × 10^5 cells/well and allowed to recover for 24 h at 37°C 5% CO2, 20% O2. Then, the medium was change to PSC Neural Induction medium (A1647801, Gibco, ThermoFisher Scintific, Italy) and, for 7 days, medium was replaced every other day, according to standard protocol (ThermoFisher Scientific, MAN0008031).
Patient-specific NSCs and the control BJ-NSCs were maintained in a medium consisting of equal parts of PSC Neural Induction Medium and Advanced DMEM/F12, on diluted Geltrex matrix coated plates (1:100 Geltrex in DMEM/F12 medium).
AGS2 patient-derived iPSCs were seeded at 3.0 × 10^4 cells/well in a final volume of 100 µL while all the other iPSCs tested (AGS1, AGS7 and BJ-iPSCs) were seeded at 1.0 × 10^4 cells/well; all NSCs were seeded at 1.0 × 10^4 cells/well. After 24 h of incubation at 37°C, 5%CO2, 20% O2, the cultural medium was replaced with a drug-containing medium at serially diluted concentrations (Supplementary Table S1). […] Absorbance was measured at 540–630 nm wavelength (Fluorostar Omega, BMG, Labtech Germany).
Cell metabolic activity was calculated as % cell activity = (absorbance treated/absorbance control)*100, and considered as a measurement of cell viability. […]

Which “cytotoxicity (in words)” value does the source give for `Nc1nc2nc[nH]c2c(=S)[nH]1` [thioguanine] here?
The value was “did not show cytotoxicity”.

Source: PMC11966042, “Pharmacological evaluation of drug therapies in Aicardi-Goutières syndrome: insights from patient-derived neural stem cells” (Frontiers in Pharmacology, 2025)
